In this experiment the target is TRIP8b-HCN1c40 (Homo sapiens (Human), UniProt Q8IYB4). The experiment is described as follows: TRIP8b-HCN1c40 AlphaScreen assay. The following applies: read-out: TRIP8b-HCN1c40 Alphascreen IC50. Here is the method:
AlphaScreen Assay. 20 nM ofGST-tagged HCNlc40 protein (corresponding to the C terminal 40 amino acids of HCN1) was incubated with 200 nM of His-tagged TRIP8b(241-602) and varying concentrations of the test compound as described in our prior report (Han et al., 2015). After a 3 h incubation, anti-GST AlphaScreen acceptor beads were added for 1.5 h followed by AlphaScreen nickel chelate donor beads for 1.5 h. AlphaScreen signal was quantified using a PerkinElmer (Waltham, MA) EnSpire multimode plate reader.

Protein sequences, listed by entry. Tags and fused reporters are not part of them. Residues count along the entry.
UniProt Q8IYB4, 265-626 limits assumed: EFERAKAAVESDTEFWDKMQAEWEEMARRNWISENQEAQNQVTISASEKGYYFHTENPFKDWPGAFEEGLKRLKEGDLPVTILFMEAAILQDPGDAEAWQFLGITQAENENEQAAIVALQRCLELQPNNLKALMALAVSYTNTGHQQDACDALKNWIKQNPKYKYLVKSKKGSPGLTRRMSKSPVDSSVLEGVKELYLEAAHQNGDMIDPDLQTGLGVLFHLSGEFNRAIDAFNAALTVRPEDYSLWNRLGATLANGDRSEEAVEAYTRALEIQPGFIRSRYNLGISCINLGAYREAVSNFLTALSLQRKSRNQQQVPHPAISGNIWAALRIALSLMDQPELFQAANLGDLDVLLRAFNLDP

The IC50 is the concentration at which inhibition is half-maximal. Take `CN1CCN(Cc2cc(-c3ccc(O)cc3)ccc2OCC(=O)NCc2ccc(Cl)cc2)CC1`: the IC50 worked out at 42 µM. The figure for `CN1CCN(Cc2cc(-c3ccc([N+](=O)[O-])cc3)ccc2OCC(=O)NCc2ccc(Cl)cc2)CC1` is 16 µM. The figure for `Cc1ccc(-c2ccc(OCC(=O)Nc3ccc(F)cc3)c(CN3CCOCC3)c2)cc1` is 12 µM; for `CN1CCN(Cc2cc(Br)ccc2OCC(=O)NCc2ccc(Cl)cc2)CC1` it is 120 µM; for `Cc1ccc(-c2ccc(OCC(=O)Nc3ccc(-n4cccn4)cc3)c(CN3CCOCC3)c2)cc1` it is 11 µM. On to `CN1CCN(Cc2cc(-c3ccc(C#N)cc3)ccc2OCC(=O)NCc2ccc(Cl)cc2)CC1`, for which the half-maximal inhibitory concentration (IC50) is 38 µM. The figure for `CN1CCN(Cc2cc(-c3ccc(C(N)=O)cc3)ccc2OCC(=O)NCc2ccc(Cl)cc2)CC1` is 92 µM; for `Cc1ccc(-c2ccc(OCC(=O)NCc3ccc(Cl)cc3)c(CN3CCN(C)CC3)c2)cc1` it is 8.7 µM.

For the origin of these results see US20230391714A1, “INHIBITORS OF THE INTERACTION BETWEEN TRIP8B AND HCN CHANNELS AND USES THEREOF FOR TREATING NEUROLOGICAL DISEASES AND DISORDERS” (Northwestern University, priority 2022, published 2023).
